Measurements: PMC2866048

Biological target: Rabbit skeletal actin, polymerised (F-actin) (rabbit), P68135
Assay: co-sedimentation
Conditions: remark: other sources report otherwise

Kd: 170 nM
B1: Drebrin construct 1-300, Q9QXS6 1-300 (domain or fragment)
chain: MAGVSFSGHRLELLAAYEEVIREESAADWALYTYEDGSDDLKLAASGEGGLQELSGHFENQKVMYGFCSVKDSQAALPKYVLINWVGEDVPDARKCACASHVAKVAEFFQGVDVIVNASSVEDIDAGAIGQRLSNGLARLSSPVLHRLRLREDENAEPVGTTYQKTDAAVEMKRINREQFWEQAKKEEELRKEEERKKALDARLRFEQERMEQERQEQEERERRYREREQQIEEHRRKQQSLEAEEAKRRLKEQSIFGDQRDEEEESQMKKSESEVEEAAAIIAQRPDNPREFFRQQERV
